Measurements as given in PMC11335710, “Sitagliptin elevates plasma and CSF incretin levels following oral administration to nonhuman primates: relevance for neurodegenerative disorders” (GeroScience, 2024).

Protein sequences, listed by entry. Tags and fused reporters are not part of them. Residues count along the entry.
UniProt A0A075TEP6, 1-766: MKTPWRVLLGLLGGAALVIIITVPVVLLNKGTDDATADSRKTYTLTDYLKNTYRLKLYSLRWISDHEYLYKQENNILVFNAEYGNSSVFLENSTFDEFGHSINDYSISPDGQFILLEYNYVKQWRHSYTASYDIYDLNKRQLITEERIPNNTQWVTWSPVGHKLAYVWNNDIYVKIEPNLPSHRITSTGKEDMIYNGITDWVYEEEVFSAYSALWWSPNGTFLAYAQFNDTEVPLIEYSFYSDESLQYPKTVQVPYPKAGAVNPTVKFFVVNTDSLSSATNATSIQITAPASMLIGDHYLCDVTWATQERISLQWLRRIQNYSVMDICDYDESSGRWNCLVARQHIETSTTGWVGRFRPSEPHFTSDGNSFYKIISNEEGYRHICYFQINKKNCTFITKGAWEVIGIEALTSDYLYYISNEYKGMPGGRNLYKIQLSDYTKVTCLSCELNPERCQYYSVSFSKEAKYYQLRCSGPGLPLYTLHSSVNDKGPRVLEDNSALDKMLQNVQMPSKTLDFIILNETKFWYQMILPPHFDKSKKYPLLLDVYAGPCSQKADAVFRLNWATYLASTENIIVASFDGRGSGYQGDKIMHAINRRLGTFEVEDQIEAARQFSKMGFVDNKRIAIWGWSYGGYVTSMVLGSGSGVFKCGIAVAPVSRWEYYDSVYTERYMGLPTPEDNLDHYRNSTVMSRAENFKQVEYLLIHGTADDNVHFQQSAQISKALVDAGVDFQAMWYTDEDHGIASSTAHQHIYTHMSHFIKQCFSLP

Biological target: T1, DPP-4 (Macaca mulatta, UniProt A0A075TEP6)
T1 construct: from tissue; host or cells: plasma of rhesus monkeys dosed orally with sitagliptin
Assay: Plasma DPP-4 activity after sitagliptin in NHPs (fluorometric assay)
Type: in vivo
Details: 5, 20, 100 mg/kg oral, NHP plasma

For `N[C@@H](CC(=O)N1CCn2c(nnc2C(F)(F)F)C1)Cc1cc(F)c(F)cc1F` [sitagliptin], the “Effect on plasma DPP-4 activity” value was “dose- and time-dependent reduction in DPP-4 activity”.
